Assay results from patent publication US7326768B2, “Goodpasture antigen-binding protein isoforms and protein misfolded-mediated disorders” (priority 2003, dated 2008).

Legend:
[1] = system: α3(IV)NC1-expressing cells (HEK293); assay: α3(IV)NC1 conformer production in cultured cells (Western blot of culture media); format: cell-based, human; conditions: synthetic peptides 100-200 μM, organic compounds 5-50 μM, 24-48 h
[2] = system: NZW mice; assay: Degenerative glomerulopathy in NZW mice (histochemical studies of kidney); format: in vivo; conditions: NZW treated with DAB-Am-4 and peptide 20 μg/g i.p.

Structure (SMILES): CC[C@@H](C)[C@@H](NC(=O)[C@@H](CS)NC(=O)[C@@H](Cc1c[nH]cn1)NC(=O)[C@@H](CO)NC(=O)[C@@H](CC(C)C)NC(=O)[C@H](NC(=O)[C@@H](C)NC(=O)[C@@H](CC(C)C)NC(C)=O)[C@H](C)O)C(=O)N[C@H](CCC(=O)O)C(=O)N[C@H](CC(C)C)C(=O)N[C@H](CCSC)C(=O)N[C@@H](C(=O)N[C@H](CCCCN)C(=O)N[C@H](CCCNC(=N)N)C(N)=O)C(C)C [Q2D]
- α3(IV)NC1 conformer production in cultured cells [1]: more efficient inhibiting
- material deposited in the glomerulus of suspected collagenous nature [2]: significantly more effective than the L-amino acid version
